The target in assay [1] is T1, Tubulin (Bos taurus) (UniProt Q6B856+Q862L2+Q862F3). Description: Stimulation of bovine brain tubulin polymerization after 20 mins by turbidimetry analysis.
Assay [2] concerns the target T1, Tubulin (Bos taurus). The assay is described as follows: Stimulation of [3H]colchicine binding to bovine brain tubulin at 5 uM after 10 mins.

Amino acid sequences for entries named in this document (tags omitted).
UniProt Q6B856, whole entry, looked up: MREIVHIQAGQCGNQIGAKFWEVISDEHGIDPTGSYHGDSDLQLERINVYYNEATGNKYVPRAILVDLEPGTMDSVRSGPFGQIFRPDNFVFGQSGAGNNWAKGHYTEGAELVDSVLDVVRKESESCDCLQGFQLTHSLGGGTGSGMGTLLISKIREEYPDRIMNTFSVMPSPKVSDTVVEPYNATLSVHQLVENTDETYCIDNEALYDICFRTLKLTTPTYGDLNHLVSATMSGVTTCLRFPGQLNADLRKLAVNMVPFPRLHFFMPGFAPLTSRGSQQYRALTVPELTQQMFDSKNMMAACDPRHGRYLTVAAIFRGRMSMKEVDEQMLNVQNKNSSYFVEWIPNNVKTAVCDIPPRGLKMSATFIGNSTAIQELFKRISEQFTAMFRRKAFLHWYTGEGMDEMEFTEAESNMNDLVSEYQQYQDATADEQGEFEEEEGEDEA

Calls of active or inactive are those of the source. No cut-off for these calls is given here.

`CC(=O)O[C@H]1C(=O)[C@@]2(C)[C@H]([C@H](OC(=O)c3ccccc3)[C@]3(O)C[C@H](OC(=O)[C@H](O)[C@@H](NC(=O)c4ccccc4)c4ccccc4)C(C)=C1C3(C)C)[C@]1(OC(C)=O)CO[C@@H]1C[C@@H]2O` [PACLITAXEL]: the result at Tubulin (Bos taurus) [1] and at Tubulin (Bos taurus) [2] was Active.

For the origin of these results see ChEMBL document CHEMBL3297684, “Discovery of biarylaminoquinazolines as novel tubulin polymerization inhibitors” (J Med Chem, 2014).
